The structures appear in SMILES notation.

The test system of data set [1] is HIV-1 91US001.
Data set [2] relates to HIV-1 92HT599.
For data set [3], the system named is HIV-2 CBL20 H9.
Data set [4] has as its system HIV-2 CDC 310319.
Data set [5] concerns HIV-1 MDR 769.
Data set [6] has as its system all tested HIV strains. In words: microbe, parasite or virus in culture. The settings on record: Human immunodeficiency virus 1, PBMC, read-out: IC50 with respect to all tested HIV strains.

Consider `NCC(=O)Nc1ccc(-n2nc(C(F)(F)F)cc2-c2ccc3c(ccc4ccccc43)c2)cc1` [AR-12, 2-amino-N-(4-(5-(phenanthren-2-yl)-3-(trifluoromethyl)-1H-pyrazol-1-yl)phenyl)acetamide], for which the “Antiviral Index (TC50/IC50)” value in data set [1] amounted to 25.6; in data set [2] it was 22.6; in data set [3], 12.0; in data set [4], 16.4; in data set [5] it was 19.9. Also, the IC50 – broadly, the midpoint of a concentration-inhibition curve – in data set [6] lay within 240 to 510 nM.
`Cc1cn([C@H]2C[C@H](N=[N+]=[N-])[C@@H](CO)O2)c(=O)[nH]c1=O` [AZT, azidothymidine]: the “Antiviral Index (TC50/IC50)” value in data set [1] is over 57.5; in data set [2], over 84.0; in data set [3], >10,000; in data set [4], over 174. The “concentration required to achieve a 50% (TC50) inhibition of viral replication” value is given as 17.4 nM in data set [1], 5.73 nM in data set [4] and over 1000 nM in data set [5]. Also, the “concentration required to result in a 50% (TC50) inhibition of viral replication” value in data set [2] was 11.9 nM; in data set [3], under 0.10 nM.
Turning to `O=C1Nc2ccc(Cl)cc2[C@@](C#CC2CC2)(C(F)(F)F)O1` [Efavirenz], in data set [5], the “Antiviral Index (TC50/IC50)” value is listed as >1,506 and the “concentration required to achieve a 50% (TC50) inhibition of viral replication” value is given as 0.66 nM.
Taken in the same sequence, the figures for `Cc1cccc(C)c1OCC(=O)N[C@@H](Cc1ccccc1)[C@@H](O)C[C@H](Cc1ccccc1)NC(=O)[C@H](C(C)C)N1CCCNC1=O` [Lopinavir] were over 1.21 and 877 nM.

For the origin of these results see patent publication US20160213647A1, “COMPOSITIONS AND METHODS FOR INHIBITING VIRAL INFECTION” (priority 2015, published 2016).
